Source: US6482948B1, “Thienopyrimidine compounds and salts thereof and process for the preparation of the same” (Nippon Soda Co., Ltd., priority 1999, dated 2002)

How the values were obtained:
[1] = target: PDE 1 (Ca-calmodulin activatable PDE); experiment: Phosphodiesterase inhibiting activity, PDE 1; details: read-out: Inhibition of PDE Activity: IC50 PDE 1; isozyme from dog heart; 1 μM [3H]-cAMP or [3H]-cGMP
[2] = target: PDE 4 (cGMP non-inhibitable cAMP PDE); experiment: Phosphodiesterase inhibiting activity, PDE 4; details: read-out: Inhibition of PDE Activity: IC50 PDE 4; isozyme from dog kidney; 1 μM [3H]-cAMP or [3H]-cGMP
[3] = tested on: thoracic aortas; experiment: Vasodilating activity, phenylephrine-contracted thoracic aorta ring preparations (Magnus method); details: read-out: Vasodilating Activity EC50, rat thoracic aorta ring preparations contracted with 1 μM phenylephrine, 37° C., drug added cumulatively

IC50 [1]: 2 µM | IC50 [2]: > 10 µM | EC50 [3]: 0.0061 µM
Structure (SMILES): CCCc1nn(C)c2c(=O)[nH]c(-c3cc(S(=O)(=O)N4CCN(C)CC4)ccc3OCC)nc12
